Measurements: the Kinase Knowledgebase extract (Sharma et al. 2016)

Amino acid sequences for entries named in this document (tags omitted).
UniProt P00533, whole entry, looked up: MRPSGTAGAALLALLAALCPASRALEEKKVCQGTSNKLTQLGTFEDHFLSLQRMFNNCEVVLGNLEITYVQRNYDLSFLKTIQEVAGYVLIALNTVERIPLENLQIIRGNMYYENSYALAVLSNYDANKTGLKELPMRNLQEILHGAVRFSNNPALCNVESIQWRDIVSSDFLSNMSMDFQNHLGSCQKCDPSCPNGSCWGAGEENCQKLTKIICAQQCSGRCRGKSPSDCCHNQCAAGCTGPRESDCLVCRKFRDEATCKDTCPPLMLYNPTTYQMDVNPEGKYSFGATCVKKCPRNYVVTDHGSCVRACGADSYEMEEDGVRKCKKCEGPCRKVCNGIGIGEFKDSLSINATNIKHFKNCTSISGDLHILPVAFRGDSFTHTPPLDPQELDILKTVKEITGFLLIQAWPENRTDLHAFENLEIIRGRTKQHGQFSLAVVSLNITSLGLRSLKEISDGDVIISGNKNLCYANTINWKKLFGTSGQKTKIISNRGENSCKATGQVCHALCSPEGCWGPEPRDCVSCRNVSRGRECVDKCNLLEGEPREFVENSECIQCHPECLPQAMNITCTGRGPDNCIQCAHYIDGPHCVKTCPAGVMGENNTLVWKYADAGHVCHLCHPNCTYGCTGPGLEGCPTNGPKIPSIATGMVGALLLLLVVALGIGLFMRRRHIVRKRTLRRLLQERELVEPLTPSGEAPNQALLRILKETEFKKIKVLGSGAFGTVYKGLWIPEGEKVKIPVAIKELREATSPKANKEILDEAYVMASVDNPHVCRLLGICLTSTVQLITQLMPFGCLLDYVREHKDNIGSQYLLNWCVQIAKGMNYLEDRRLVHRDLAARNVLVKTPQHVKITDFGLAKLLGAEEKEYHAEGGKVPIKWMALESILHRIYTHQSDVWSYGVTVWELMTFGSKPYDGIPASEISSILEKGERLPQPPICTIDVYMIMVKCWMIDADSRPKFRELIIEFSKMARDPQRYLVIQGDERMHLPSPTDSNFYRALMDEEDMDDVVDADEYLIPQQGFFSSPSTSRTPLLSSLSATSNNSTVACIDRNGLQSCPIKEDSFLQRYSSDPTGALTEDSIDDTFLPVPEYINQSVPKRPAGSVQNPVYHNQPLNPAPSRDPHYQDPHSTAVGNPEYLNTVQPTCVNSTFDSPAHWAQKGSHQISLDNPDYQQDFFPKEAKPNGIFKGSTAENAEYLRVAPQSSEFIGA

Molecular target: EGFR (human) (UniProt P00533)
Settings: a431

## COc1cc2ncnc(Nc3cccc(Cl)c3)c2cc1OC
  IC50: 10 µM
